Assay results as given in FireProtDB (doi:10.1110/ps.840101).

B1: Alpha-1-antitrypsin, P01009 (parent)
chain: MPSSVSWGILLLAGLCCLVPVSLAEDPQGDAAQKTDTSHHDQDHPTFNKITPNLAEFAFSLYRQLAHQSNSTNIFFSPVSIATAFAMLSLGTKADTHDEILEGLNFNLTEIPEAQIHEGFQELLRTLNQPDSQLQLTTGNGLFLSEGLKLVDKFLEDVKKLYHSEAFTVNFGDTEEAKKQINDYVEKGTQGKIVDLVKELDRDTVFALVNYIFFKGKWERPFEVKDTEEEDFHVDQVTTVKVPMMKRLGMFNIQHCKKLSSWVLLMKYLGNATAIFFLPDEGKLQHLENELTHDIITKFLENEDRRSASLHLPKLSITGTYDLKSVLGQLGITKVFSNGADLSGVTEEAPLKLSKAVHKAVLTIDEKGTEAAGAMFLEAIPMSIPPEVKFNKPFVFLMIEQNTKSPLFMGKVVNPTQK

Variants of: B1
Settings: Homo sapiens; pH 6.5; 25 °C; GdnHCl; Fluorescence; phosphate 10 mM; NaCl 50 mM; reversible: Unknown; structure 1QLP; whole UniProt chain shown

Row | Variant | ddG of mutation (higher = less stable) [kcal/mol]
1 | A274L | 1
2 | A274I | 0.4
3 | A274V | 0.4
4 | A55P | -2.5
5 | A55V | -0.6
6 | A55L | -0.9
7 | V345I | -0.6
8 | V345L | 1.2
9 | A207L | -1.4
10 | A207V | -3.8
11 | A207F | -1.5
12 | A207I | -1.8
13 | V79I | 0.2
14 | V388L | 0.3
15 | V388I | -0.4
16 | V197I | -0.5
17 | V197L | 0.6
18 | V169I | -0.2
19 | V169L | 0.7
20 | A308V | -0.8
21 | A308I | 0
22 | A272F | -1.8
23 | A272V | -2.3
24 | A272I | -2.2
